# From patent publication US20050187188A1, “Methods for the treatment of a traumatic central nervous system injury” (Emory University, priority 2000, published 2005)
# Key:
# Type in all cases: in vivo, rat
# TNFα = TNFα mRNA expression in brain tissue after contusion, real-time quantitative PCR
# Description: (§1) Neurosteroid injections were given at 1 hr and 6 hrs after the contusions, and continued once a day for up to 5 consecutive days post-injury. At 3 hrs, 8 hrs, 12 hrs, and 6 days post-injury, the level of TNF mRNA expression was determined. sham-vehicle (SV); sham-progesterone (SP); sham-allopregnanolone (SA); lesion-vehicle (LV); Lesion-progesterone (LP); lesion-allopregnanolone. *=P<0.05
# (§2) Adult male SD rates received either bilateral prefrontal cortical contusions or sham surgeries. The neurosteroid injections were given at 1 hr and 6 hr after the contusions and continued once a day for up to 5 consecutive days post-injury. At 3 hr, 8 hr, 12 hr and 6 days post-injury, the rats were killed and their brains were processed for mRNA extraction. Expression of mRNA for IL-1β and TNFα were assessed using real-time quantitative PCR.
# IL-1β = IL-1β mRNA expression in brain tissue after contusion, real-time quantitative PCR
# Description: as §1, with “12 hrs” for “12 hrs,”, “of IL-1” for “of TNF”
# as §2
# [1] = tested on: rats with bilateral frontal cortical contusions; test: Morris water maze after MFC contusion, Example 2; conditions: 4 mg/kg; logarithmic regression
# Description: Contusions to the MFC were carried out as described in Example 1.
# Adult male rats were given 5 injections of either vehicle (cyclodextrin), progesterone, allopregnanolone, or epipregnanolone (all at 4 mg/kg). These injections started at one hour post-injury with an intraperitoneal injection, and then were repeated at 6, 24, 48, 72, 96, and 120 hours post-injury with subcutaneous injections.
# The Morris Water Maize (MWM) consisted of a circular tank with a diameter of 133 cm filled with opaque water (20±1° C.; non-toxic Artista™ nontoxic white tempura paint) to a depth of 64 cm (23 cm from top of tank). A platform (11 cm×11 cm) was submerged to a depth of 2 cm and placed approximately 28 cm from the wall of the pool in the center of the northeast quadrant. The position of the platform will remain constant throughout the experiment. MWM testing began seven days after surgery. Each animal was tested for a total of 10 days (2 trials per day) in two 5-day blocks. At the start of each trial, the experimenter placed a rat into the pool at one of four starting positions, and at the same time, activate the computer-interfaced camera tracking system. […] The performance of each rat was measured in terms of latency to platform, length of path to platform, and swim strategy, i.e., percent of total time spent in the outer versus inner annuli.
compound,measurement,setting,value
"CC(=O)[C@H]1CC[C@H]2[C@@H]3CC[C@H]4C[C@H](O)CC[C@]4(C)[C@H]3CC[C@]12C [allopregnanolone, allopregnan-3α, or 3β-ol-20-one]",TNFα mRNA expression,TNFα; 3 hours and 6 days post-injury,reduced the expression of both IL-1β and TNFα
same,TNFα mRNA expression,TNFα; 12 hours post-injury,enhanced
same,IL-1β mRNA expression,IL-1β; 3 hours and 6 days post-injury,reduced the expression of both IL-1β and TNFα
same,IL-1β mRNA expression,IL-1β; 8 hrs post-injury,enhanced
same,slope of learning curve (rate of learning) relative to injured rats given vehicle,[1],almost twice
